Assays:
MV4-11 cells = test: Leukemia cell proliferation inhibition test (ATPlite), MV4-11; settings: read-out: MV4-11 cell proliferation inhibition effect
[1] = target: human FLT3 protein (FLT3 (WT)) (Homo sapiens, UniProt P36888); test: FLT3 inhibition test (FLT3 enzyme inhibition, time-resolved fluorescence of substrate peptide phosphorylation); format: biochemical; settings: read-out: FLT3 (WT) enzyme inhibition activity
Molm-13 cells = test: Leukemia cell proliferation inhibition test (ATPlite), Molm-13; settings: read-out: MOLM13 cell proliferation inhibition effect

Protein sequences, listed by entry. Tags and fused reporters are not part of them. Residues count along the entry.
UniProt P36888, 564-993 limits assumed: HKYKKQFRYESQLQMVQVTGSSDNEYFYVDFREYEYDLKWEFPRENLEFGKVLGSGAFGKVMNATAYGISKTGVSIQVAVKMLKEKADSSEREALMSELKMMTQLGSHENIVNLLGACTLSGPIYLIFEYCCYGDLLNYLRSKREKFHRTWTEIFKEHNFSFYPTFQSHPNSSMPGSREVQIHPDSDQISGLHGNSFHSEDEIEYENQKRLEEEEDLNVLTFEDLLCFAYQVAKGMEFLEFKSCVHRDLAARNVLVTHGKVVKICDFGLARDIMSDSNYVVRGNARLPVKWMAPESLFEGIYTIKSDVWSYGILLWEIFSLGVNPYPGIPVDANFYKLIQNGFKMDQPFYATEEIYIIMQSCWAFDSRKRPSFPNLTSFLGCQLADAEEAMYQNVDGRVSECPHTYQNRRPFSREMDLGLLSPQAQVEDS

Measured: IC50

CCCNc1nc(Nc2ccnc(C)c2)ncc1C#CCCCNC(=O)[C@H](C)N(C)C(=O)/C=C/CN(C)C
< 0.01 µM: MV4-11 cells | [1] | Molm-13 cells
